The target of the test is MORC3-CW E431A mutant (Homo sapiens, UniProt Q14149, E431A). Particulars: MORC3-CW E431A compared with WT MORC3-CW.

Amino acid sequences for entries named in this document (tags omitted). Residues count along the entry.
UniProt Q14149, 401-455 E431A: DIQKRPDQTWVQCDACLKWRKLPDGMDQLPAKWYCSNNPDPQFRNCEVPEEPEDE

Square brackets hold non-standard residues; d marks the D form. Peptide text beside a SMILES is read from it. Lys(Me3) = C[N+](C)(C)CCCC[C@H](N)C(=O)O

Consider `CSCC[C@H](N)C(=O)N[C@@H](C)C(=O)N[C@@H](CCCNC(=N)N)C(=O)N[C@H](C(=O)N[C@@H](C)C(=O)N[C@@H](CCCNC(=N)N)C(=O)N[C@@H](CO)C(=O)N[C@@H](CCCC[N+](C)(C)C)C(=O)N[C@H](C(=O)O)C(C)C)[C@@H](C)O` [NS1K229me3] (H-MARTARS[Lys(Me3)]V-OH; N-terminus and C-terminus assumed), for which the “effect of E431A mutation on binding” value was “substantially decreased”.

For the origin of these results see article PMC11514443 (Structure (London, England : 1993), 2019).
